## Cyclic peptide permeability, from CycPeptMPDB

Values of Ramalho et al. 2018, doi:10.1021/acs.jnatprod.8b00447, as listed in CycPeptMPDB.

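Conditions beyond the assay type are not listed; see the original paper. Other peptides of the study may be missing here. Entries at the database's floor value (log10 P of -10) are not listed.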

PAMPA is the parallel artificial membrane permeability assay, which has no cells and reads passive diffusion. Values are log10 P with P in cm/s, so -5 is more permeable than -7.

CC[C@H](C)[C@@H]1NC(=O)[C@H]([C@@H](C)CC)N(C)C(=O)[C@H](CO)NC(=O)CN(C)C(=O)[C@H](CC(C)C)N(C)C(=O)[C@H]([C@@H](C)CC)NC(=O)CNC(=O)[C@H](CC(C)C)NC1=O is reported with PAMPA -6.66 (log10 cm/s).